Organism: Homo sapiens
Experiment: Protein binding in human plasma
Conditions: read-out: PPB

fraction unbound: 0.01
Structure (SMILES): COc1ccc2c(c1)c(CC(=O)O)c(C)n2-c1ccnc2cc(Cl)ccc12
